## Ab-14 heavy chain CDR variants: yeast mating affinities

Antigen: PDVDLGDISGINAS, a 14-residue peptide of the SARS-CoV-2 spike HR2 region.

Ab-14 is the parent antibody, in scFv form: VH, then the linker GGGGSGGGGSGGGGS, then VL. The light chain is unchanged in all variants.
VH: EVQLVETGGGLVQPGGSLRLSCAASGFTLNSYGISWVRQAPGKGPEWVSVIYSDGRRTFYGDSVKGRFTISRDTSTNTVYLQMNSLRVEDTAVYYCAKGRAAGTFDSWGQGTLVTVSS
VL: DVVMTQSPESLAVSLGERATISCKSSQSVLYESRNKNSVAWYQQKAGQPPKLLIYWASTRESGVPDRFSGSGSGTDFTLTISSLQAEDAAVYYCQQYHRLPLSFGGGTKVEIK

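The starting antibody came from a phage panning campaign against this peptide. The library (AAYL49) carries one to three amino acid substitutions per variant, with no insertions or deletions. Affinity was read by AlphaSeq, a pooled yeast mating assay with surface-displayed partners. The frequency of each diploid, read from paired DNA barcodes, reflects how well the two displayed proteins bind. Scores were corrected for input abundance and mapped to Kd with protein pairs of known affinity run in the same pool. There are three technical replicates.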

Positions count from residue 1 of the parent VH; Y32Q puts Q in place of Y.
Every variant below is changed at A101 of the VH (sequential numbering).
Each Kd is an estimate from the mating assay, the geometric mean of the replicates in which the pair was seen; lower is stronger.
An entry "no signal" has no value in the source: the pair was not observed among the diploids in any replicate. This suggests poor binding but is not conclusive.
Order: sorted from the lowest average up, undetected variants last.
As a blank, each scFv also met three strains without target: over library AAYL49, 15% of these pairings were detected, typically at 11 µM and seldom below 680 nM.
Parent in this assay: reference entry 4.4 nM, copy in this library 13 µM (one replicate of three).

The variant Y32Q+G61L+A101S showed 3.1 nM (3 of 3 replicates).
The variant N30Q+I51A+A101T showed 7.2 nM (3 of 3 replicates).
The variant T28E+S31F+A101N showed 7.3 nM (3 of 3 replicates).
The variant S63M+A101Q+T104S showed 28 nM (3 of 3 replicates).
The variant T58K+K65H+A101E showed 53 nM (3 of 3 replicates).
The variant T28Q+A101G showed 250 nM (3 of 3 replicates).
The variant V50T+A101Q showed 460 nM (3 of 3 replicates).
The variant T28R+R100P+A101D showed 910 nM (1 of 3 replicates).
The variant G26C+D62S+A101Y showed 2.3 µM (3 of 3 replicates).
The variant G55W+A101S showed 6.1 µM (1 of 3 replicates).
The variant I51W+S53R+A101E showed 9.0 µM (1 of 3 replicates).
The variant Y32F+A101S+T104A showed 21 µM (1 of 3 replicates).
The variant F27E+Y52N+A101P showed 24 µM (2 of 3 replicates).
The variant L29A+F59E+A101G showed 26 µM (1 of 3 replicates).
The variant F59N+G99A+A101V showed 39 µM (1 of 3 replicates).
The variant Y52K+R57W+A101T showed 81 µM (1 of 3 replicates).
The variant S53E+G99W+A101C showed 88 µM (1 of 3 replicates).
The variant F27H+N30Q+A101K showed 140 µM (1 of 3 replicates).
The variant I51D+S53R+A101V showed no signal (0 of 3 replicates).
The variant S35L+F59T+A101V showed no signal (0 of 3 replicates).
The variant S53M+R56P+A101Q showed no signal (0 of 3 replicates).
The variant V50K+T58N+A101G showed no signal (0 of 3 replicates).
The variant G99H+A101E+D106W showed no signal (0 of 3 replicates).
The variant Y32N+R100W+A101D showed no signal (0 of 3 replicates).
The variant F59S+G99K+A101Y showed no signal (0 of 3 replicates).
The variant S31A+A101H+T104F showed no signal (0 of 3 replicates).
The variant V50Q+Y60V+A101L showed no signal (0 of 3 replicates).
The variant S35Q+T58W+A101R showed no signal (0 of 3 replicates).
The variant I34K+A101I+S107F showed no signal (0 of 3 replicates).
The variant S31H+A101H+F105L showed no signal (0 of 3 replicates).
The variant D62P+A101Y+G103F showed no signal (0 of 3 replicates).
The variant Y32D+K65Y+A101G showed no signal (0 of 3 replicates).
The variant Y52G+R56I+A101C showed no signal (0 of 3 replicates).

From the AlphaSeq antibody data of Engelhart et al. 2022 (doi:10.1038/s41597-022-01779-4), copy in the FLAb collection.